AlphaSeq binding of Ab-14 light chain variants to a spike HR2 peptide

Target peptide (SARS-CoV-2 spike, HR2 region): PDVDLGDISGINAS

Ab-14 is the parent antibody, in scFv form: VH, then a (GGGGS)3 linker, then VL. The heavy chain is unchanged in all variants.
VH: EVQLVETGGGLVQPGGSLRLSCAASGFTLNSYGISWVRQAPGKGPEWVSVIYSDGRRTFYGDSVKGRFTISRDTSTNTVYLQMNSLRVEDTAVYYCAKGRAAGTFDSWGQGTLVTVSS
VL: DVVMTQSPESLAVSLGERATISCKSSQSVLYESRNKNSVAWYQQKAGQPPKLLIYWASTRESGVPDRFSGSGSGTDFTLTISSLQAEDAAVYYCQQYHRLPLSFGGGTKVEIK

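The parent was found by panning a naive human phage display library on the peptide. The variants were designed computationally from a first round of random CDR variants and then made and measured. Several design methods are mixed in this list. The scFvs were displayed on barcoded MATa yeast, the peptide on MATalpha yeast. Pairs that bind mate more often; barcode pairs of the diploids are counted by sequencing. Each replicate has its own calibration line, from reference interactions of the BCL2 family. Each pool was mated in six replicate cultures.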

Each variant is given by its three light chain CDRs, as the data file delimits them; those of the parent are KSSQSVLYESRNKNSVA, WASTRES, QQYHRLPLS. Scale: log10 of Kd in nM, estimated from mating counts; low values are strong binders. Averages over replicates are reported, and they cover detected replicates only. A pair that was not seen in that replicate is written "nd"; this usually means weak binding, but a binder can also be missed. The range of this assay differs from that of the first round, and the authors advise against merging the two. The authors averaged sequences with at least three values out of six and counted those with two or fewer as poor binders. Nonspecific signal, from three strains lacking the peptide, appeared in 4% of pairings of all light chain designs, centred on 2.64 (5% of these signals below 1.59); values are not corrected for it. For each scFv, signals with the empty controls are counted beside the result.

With MFSQLMAYGSRYANSVA | QASTRED | QQYHRLPLS the result was 0.66, 0.09, 0.09, -0.05, 0.09, 0.40 (mean 0.21; controls 0 of 18).
With KLQQSELYESRNKNSVA | NASQRES | QDYHRLPLS the result was -0.17, -0.22, -0.22, -0.35, -0.27, -0.24 (mean -0.24; controls 0 of 18).
With KITATMRFEQKNTNNIA | EVSTRSK | QQYVRLPLA the result was 0.60, 0.70, 0.51, 0.70, 0.92, 0.58 (mean 0.67; controls 0 of 18).
With KSSQLQDYGDRNSNSVA | NASQREH | QQYHRLPLS the result was 0.42, 0.37, -0.01, 0.42, 0.30, 0.51 (mean 0.33; controls 0 of 18).
With LLQQSELYESRNKNSVA | DASTRES | QAYHRLPLS the result was 0.49, 0.39, 0.23, 0.03, 0.39, 0.51 (mean 0.34; controls 2 of 18).
With SLHLYTNTEENNNNSIA | EKSYRAY | QQYSHLPLV the result was 1.59, 1.21, 1.45, 1.29, 1.93, 1.20 (mean 1.44; controls 2 of 18).
With QLGASHDMTSKNKNSVA | EQSTREN | QQYHRLPLS the result was 0.89, 0.56, 0.65, 0.44, 0.32, 0.64 (mean 0.58; controls 3 of 18).
With KLEQSWLYESRNKNSVA | NASTRYS | QQYHRLPLS the result was 0.10, -0.19, -0.13, -0.41, -0.26, 0.22 (mean -0.11; controls 0 of 18).
With SLIPFENQIMKGTNNIA | HTSVRAS | QQYMRLPFV the result was 0.70, 0.60, 0.86, 0.64, 0.65, 0.99 (mean 0.74; controls 1 of 18).
With KVSFSWLYESRNKNSVA | EASTRES | QQYHRLPLS the result was 0.13, -0.09, -0.35, -0.31, -0.44, -0.26 (mean -0.22; controls 0 of 18).
With KIGATLNTLYEAKNNVA | DLVEREN | QQYHRLPLS the result was 0.61, 0.88, 1.17, 0.56, 0.62, 1.21 (mean 0.84; controls 0 of 18).
With KSSGSYLYESMNKNSVA | EASTRES | QQYHRLPLS the result was 0.19, 0.38, 0.13, -0.17, -0.08, 0.38 (mean 0.14; controls 0 of 18).
With KVPGENLYESRNKNSVA | EASTRES | QDYHRLPLS the result was 0.66, 0.81, 0.71, 0.71, 0.59, 0.58 (mean 0.67; controls 0 of 18).
With MLSDLVWMGVRNTNSVA | DNSTRGS | QQYDRLPLS the result was nd, nd, 1.76, nd, nd, nd (controls 1 of 18).
With KISGYLQHESKNKNSVA | EMVNRES | QQYDRLPLS the result was 0.73, 0.51, 0.68, 1.16, 1.21, 1.21 (mean 0.92; controls 1 of 18).
With KSSQSVLQESRNKNSVA | WASTRES | TQYHRLPLS the result was nd, nd, nd, nd, nd, nd (controls 1 of 18).

The remaining entries, values ahead:

Result 1.61, 1.43, 1.62, 0.85, 1.64, 1.21 (mean 1.39; controls 0 of 18), variant ILYESVGTLSRNKHSVA | DNSTRES | QQYDRLPLS.
Result 0.27, 0.27, 0.14, 0.27, -0.02, 0.07 (mean 0.17; controls 0 of 18), variant KFSQWMLYESRTKNSVA | NASTRES | QQYHRLPLS.
Result 1.15, 1.29, 1.04, 1.21, 0.94, 1.32 (mean 1.16; controls 2 of 18), variant TISMHTSLFSQTINNVA | EVSTRER | QQYDRLPLV.
Result 0.67, 0.43, 0.42, -0.04, 0.46, 0.59 (mean 0.42; controls 0 of 18), variant KLYQVTTHHGAALNNIA | EGARRND | QQYARLPLV.
Result -0.10, -0.31, -0.30, -0.12, -0.33, -0.06 (mean -0.20; controls 0 of 18), variant KVSQSVLYESRNKNSVA | NASTRES | QSYHRLPLS.
Result 0.28, 0.02, 0.05, -0.25, 0.26, 0.18 (mean 0.09; controls 0 of 18), variant KVPQSELYESRNKNSVA | EASQRES | QQYHRLPLS.
Result nd, 0.98, 0.69, 1.06, 1.38, 0.32 (mean 0.89; controls 0 of 18), variant KFSSSVLYEDRNKNSVA | WASTRES | QQYHELPLS.
Result nd, nd, nd, nd, 0.73, nd (controls 0 of 18), variant KLGYMTAIESRNLNSVA | QMDTRES | QQYDRLPLS.
Result 0.30, -0.07, 0.20, -0.05, 0.11, 0.06 (mean 0.09; controls 1 of 18), variant TITGVMQQMSHSKNNVA | EVSERLD | QQYFRLPLE.
Result 0.55, 0.42, -0.02, 0.39, -0.05, 0.30 (mean 0.27; controls 0 of 18), variant KITGTMRFEQKASNNIA | EVEQRSK | QQYYRLPLS.
Result -0.15, -0.56, -0.58, -0.62, -0.53, -0.44 (mean -0.48; controls 0 of 18), variant HLSQSVLYESRNKNSVA | NASTREQ | QQYHRLPLS.
Result 0.04, -0.04, -0.13, -0.17, -0.21, 0.32 (mean -0.03; controls 1 of 18), variant KVSYSNPYETRNKNSVA | EASTREE | QQYHRLPLS.
Result 1.27, 1.54, 2.64, 1.67, 2.21, 1.91 (mean 1.87; controls 0 of 18), variant MFSQMTGLGMKASNSVA | QASMRFD | QQYHRLPLI.
Result 0.24, -0.03, 0.02, -0.09, -0.14, 0.01 (mean 0.00; controls 2 of 18), variant IMSEGQERDASRLNNIA | DHYTRAT | QQYARLPLH.
Result 0.75, 1.15, 1.27, 0.97, 1.27, 1.12 (mean 1.09; controls 0 of 18), variant HITDLMYNNNEGMQSIA | DKAISVN | QQYFRLPLD.
Result nd, nd, nd, nd, nd, nd (controls 1 of 18), variant SLAMFEDNYTQLHNSVA | DTANIDI | QQYDRLPLS.

The 5 strongest on average among those seen in every replicate, once more:

For HLSQSVLYESRNKNSVA | NASTREQ | QQYHRLPLS, the assay gave -0.15, -0.56, -0.58, -0.62, -0.53, -0.44 (mean -0.48; controls 0 of 18).
For KLQQSELYESRNKNSVA | NASQRES | QDYHRLPLS, the assay gave -0.17, -0.22, -0.22, -0.35, -0.27, -0.24 (mean -0.24; controls 0 of 18).
For KVSFSWLYESRNKNSVA | EASTRES | QQYHRLPLS, the assay gave 0.13, -0.09, -0.35, -0.31, -0.44, -0.26 (mean -0.22; controls 0 of 18).
For KVSQSVLYESRNKNSVA | NASTRES | QSYHRLPLS, the assay gave -0.10, -0.31, -0.30, -0.12, -0.33, -0.06 (mean -0.20; controls 0 of 18).
For KLEQSWLYESRNKNSVA | NASTRYS | QQYHRLPLS, the assay gave 0.10, -0.19, -0.13, -0.41, -0.26, 0.22 (mean -0.11; controls 0 of 18).

Data: MIT Lincoln Laboratory AlphaSeq set, Li et al. 2023, doi:10.1038/s41467-023-39022-2, as distributed in FLAb.